Biological target: T1, human mitochondrial single-stranded DNA binding protein, purified recombinant (human, UniProt Q04837 17-148)
T1 sequence (looked up): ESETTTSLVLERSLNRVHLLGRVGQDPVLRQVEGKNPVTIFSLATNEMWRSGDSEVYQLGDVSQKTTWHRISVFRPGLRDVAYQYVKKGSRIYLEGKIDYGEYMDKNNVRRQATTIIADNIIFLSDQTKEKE
Test: far-Western, overlay or dot blot

binding result: binds
B1: GST-tagged NEIL1 C-terminal construct 289–349 (domain or fragment, human, UniProt Q96FI4 289-349, looked up)
chain: APKGRKSRKKKSKATQLSPEDRVEDALPPSKAPSRTRRAKRDLPKRTATQRPEGTSLQQDP
